Tested on: human neuroblastomas SH-SY5Y cell line
Assay: Protection of SH-SY5Y cultures against tBuOOH cytotoxicity (neutral red)
Conditions: tBuOOH 1 mM 3 hours, no pretreatment

CC(C)(C)OO
cytotoxicity of tBuOOH alone: 85%

— patent publication US8455552B2, “Composition comprising S-allylmercapto-N-acetylcysteine (ASSNAC) for up-regulation of cellular glutathione level” (RAMOT et Tel Aviv University Ltd., priority 2007, dated 2013)
